High-throughput results deposited in PubChem by Broad Institute.
Rows were chosen to be rich in hits. Some 1.2% of all compounds tested hit in one or more screens of this group.
miR-122 sensor: inhibitors of miR-122 in Huh7 cells | Huh7 miR-122 Renilla luciferase sensor, 48 h; neutral wells = 0, positive control = 100 | activation (reporter increase), % at 12.5 µM | 340,000 tested, 0.3% active;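 active = mean replicate activation score at least 90 and every replicate individually at or above 90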;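 note: higher luciferase means less miR-122 activity so hits act as miR-122 inhibitors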
Cneo AK release: Cryptococcus neoformans lysis via adenylate kinase release; 360,000 tested, 0.2% active; C. neoformans lysis, adenylate kinase release luminescence, 4 h; normalised: neutral wells 0, clomiphene wells 100; AID 651654; lysis activity, % at 15 µM;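 active = mean lysis activity across replicates of at least 80%, whatever share of replicates individually reach that level; inactive = mean lysis activity below 80%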
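Assay system: Cryptococcus neoformans yeast cells / Dosing: single-point compound dose / Timing: 4 h at 37 °C static, read 1 h later / Measured by: luminescence of released adenylate kinase using an AK detection reagent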
Yeast UUG start: modulators of yeast start codon fidelity, primary screen, whole organism, S. cerevisiae, single point, plate reader; activity score, % at 18.7 µM; actives 0.13% (n = 350,000); S. cerevisiae UUG-firefly luciferase reporter, luminescence/redox ratio;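 active = replicate mean at a twofold rise or more, about +100% in these data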;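 also: firefly luciferase made from a UUG start codon reports start codon fidelity; reporter light over untreated wells divided by growth signal over untreated wells; some hits fall short of that in this replicate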
C2C12 statin: suppression of simvastatin myotoxicity. C2C12 myotubes + simvastatin, ATP luminescence, 48 h; scaled: DMSO 0, geranylgeraniol control 100. AID 602340. 330,000 tested, 0.78% active. rescue of ATP level, % at 7.49 µM;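 active = mean ATP rescue above about 67%, or every replicate alone reaching that limit, limit read from the data, passing the limit was not always enough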;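 note: myotubes were challenged with 10 µM simvastatin during compound exposure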
Starred values were filed as active, the others as inactive; . = no result given; [ ] = another dose, or the depositor's remark.

#	Molecule	miR-122 sensor	Cneo AK release	Yeast UUG start	C2C12 statin
1	Cc1noc(C)c1NC(=O)Nc1ccc2c(c1)C(=O)N([C@H](C)CO)C[C@@H](C)[C@@H](CN(C)S(C)(=O)=O)O2	-3[16.7 µM]	1	5	-22
2	C=CCOc1c(Br)cc(CNn2nnnc2N)cc1OC	-7	0	-3	111*
3	C[C@H]1CN([C@@H](C)CO)C(=O)c2cc(C#Cc3ccncc3)cnc2O[C@@H]1CN(C)Cc1ccncc1	6[16.7 µM]	.	17	39
4	COc1ccc(OC)c(N2CC(O)=C(c3nc4ccccc4s3)C2=N)c1	9	-2	10	-24
5	CCOc1ccccc1N1CC(O)=C(c2nc3ccccc3s2)C1=N	100*	-1	-12	-321
6	CCCN1CCN(C(=O)c2ccc(Sc3ccc(C)cc3)c(NC(C)=O)c2)CC1	-1	.	.	80*
7	C[C@@H]1CN([C@@H](C)CO)C(=O)c2cc(NC(=O)Nc3ccccc3)ccc2O[C@@H](C)CCCCO[C@@H]1CN(C)S(=O)(=O)c1ccc(Cl)cc1	4[16.7 µM]	-2	-9	.
8	O=C(c1cnccn1)N1CCN(C/C=C/c2ccccc2)CC1	-6	-2	-14	102*
9	C[C@@H]1CN([C@H](C)CO)C(=O)c2cc(-c3ccccc3)cnc2O[C@@H]1CN(C)C(=O)NC1CCCC1	15[16.7 µM]	10	-3	12
10	CCCCCNC(=O)c1ccc2c(=O)[nH]c3c(C(=O)NCC4CCCO4)sc(=S)n3c2c1 (centres undefined)	-3	-1	4	118*
11	CCc1ccc(NC(=O)CN2CCc3ccccc3C2)cc1	265*	-2	-11	0
12	CC(=O)c1cccc(NC(=O)NCc2ccccn2)c1	13	-7	-62	-1
13	CC(=O)c1cccc(NC(=O)NCc2cccs2)c1	103*	1	-11	-2
14	CCN(CC)c1nc(C#N)cc(-c2ccc(OC)cc2)n1	13	0	-9	109*
15	COc1ccc(-c2cc(C#N)nc(NN)n2)cc1	-1	1	-12	.
16	Cn1c2c(c(=O)n(C)c1=O)C(CC(=O)Nc1ccccc1)C(=O)N2 (centres undefined)	-2	0	-19	133*
17	Cc1onc(-c2ccccc2Cl)c1C(=O)NCc1nc(-c2ccccc2)no1	-1	-3	-10	159*
18	CCC(CC)NC(=O)COC(=O)c1ccc(OCC(=O)Nc2ccccc2OC)c(OC)c1	-10	-1	-14	67*
19	Fc1ccccc1COc1ccc(-c2nnn(Cc3ccccc3F)n2)cc1	3	0	4	120*
20	COc1ccccc1C(=O)N1CCC(C(=O)c2ccc(F)cc2)CC1	-5	-1	1	84*
21	COc1ccc(C(=O)N2CCC(C(=O)c3ccc(F)cc3)CC2)cc1	4	1	-8	4
22	CC(C)NC(=O)N1[C@@H]2c3cccc(=O)n3C[C@@H]2[C@@H](CO)[C@@H]1C(=O)N1CCc2ccccc2C1	.	-1	.	-4
23	CCOc1ccc(OCCCCN(C)C)cc1	-2	2	7	90*
24	CCCN(C)C[C@@H]1Oc2ncc(-c3ccccc3F)cc2C(=O)N([C@H](C)CO)C[C@H]1C	-2[16.7 µM]	2	6	-5
25	O=S(=O)(c1cccc2nsnc12)N1CCOCC1	-9	4	-9	114*
26	O=S(=O)(c1cccc2nsnc12)N1CCNCC1	.	-3	-6	14
27	Clc1ccc(Sc2oc(/C=N/n3cnnc3)cc2Br)cc1	-10	5	-4	149*
28	C[C@@H]1CCCCO[C@H](CN(C)S(=O)(=O)c2cn(C)cn2)[C@H](C)CN([C@@H](C)CO)C(=O)c2cc(NS(=O)(=O)c3cccs3)ccc2O1	7[16.7 µM]	0	6	32
29	CC(=O)Nc1ccc(S(=O)(=O)Oc2ccc(N3C(=O)C4CCCCC4C3=O)cc2)cc1 (centres undefined)	-1	1	3	124*
30	S=C(NN=C(C1CC1)C1CC1)Nc1ccccc1	3	1	-27	142*

miR-122 sensor, hit marks shown above
no. | SMILES | miR-122 sensor | Yeast UUG start
5 | CCOc1ccccc1N1CC(O)=C(c2nc3ccccc3s2)C1=N | 100* | -12
11 | CCc1ccc(NC(=O)CN2CCc3ccccc3C2)cc1 | 265* | -11
13 | CC(=O)c1cccc(NC(=O)NCc2cccs2)c1 | 103* | -11

Further results:
#	Molecule	miR-122 sensor	Cneo AK release	Yeast UUG start	C2C12 statin
31	CS(=O)(=O)N(CC(=O)NCc1ccccc1)C1CCCCC1	-9	1	-17	120*
32	Cc1ccc(CNC(=O)CN(C2CCCCC2)S(C)(=O)=O)cc1	6	4	0	-16
33	CC(C)CNC(=O)CN(C1CCCCC1)S(=O)(=O)c1ccccc1	3	0	-16	102*
34	CC(=O)Nc1ccc(S(=O)(=O)Nc2ccc3c(c2)n(C)c(=O)n3C)c(C)c1	156*	1	-9	9
35	CCOc1cccc(C2C(C(=O)c3ccco3)=C(O)C(=O)N2Cc2ccncc2)c1 (centres undefined)	-4	-1	-23	122*
36	O=C(C[C@@H]1C[C@H]2c3cc(NC(=O)C4CCC4)ccc3O[C@H]2[C@H](CO)O1)NC1CCCCC1	5[16.7 µM]	-1	10	1
37	CCCNC(=O)N[C@@H]1CC[C@H](CC(=O)NC2CCC2)O[C@@H]1CO	-7[16.7 µM]	1	-7	1
38	COc1ccc(N(CC(=O)Nc2cc(C)on2)S(=O)(=O)c2cc(C)ccc2C)cc1	232*	0	2	26
39	COc1ccc(N(CC(=O)Nc2cc(C)on2)S(=O)(=O)c2ccc(Cl)cc2)cc1	-1	0	-1	.
40	CCCNC(=O)C(=O)c1cccn1-c1ccsc1C(=O)OC	-1	0	-20	119*
41	CNC(=O)c1cccn1-c1ccsc1C(=O)OC	5	-4	-17	5
42	Cc1noc(C)c1NC(=O)Nc1ccc2c(c1)C(=O)N([C@H](C)CO)C[C@H](C)[C@@H](CN(C)S(=O)(=O)c1c(C)noc1C)OCCCC[C@@H](C)O2	8[16.7 µM]	-1	15	20
43	Cc1noc(C)c1NC(=O)Nc1ccc2c(c1)C(=O)N([C@@H](C)CO)C[C@@H](C)[C@H](CN(C)S(=O)(=O)c1c(C)noc1C)OCCCC[C@@H](C)O2	9[16.7 µM]	34	7	77*
44	Cc1noc(C)c1NC(=O)Nc1ccc2c(c1)C(=O)N([C@H](C)CO)C[C@@H](C)[C@H](CN(C)S(C)(=O)=O)OCCCC[C@@H](C)O2	15[16.7 µM]	103*	20	.
45	Cc1noc(C)c1S(=O)(=O)N(C)C[C@@H]1OCCCC[C@@H](C)Oc2ccc(NC(=O)CCCCCC(=O)Nc3ccccc3N)cc2C(=O)N([C@H](C)CO)C[C@@H]1C	10[16.7 µM]	108*	-6	.
46	O=C(CCN1CCCCC1)NCC[C@@H]1CC[C@@H](NS(=O)(=O)c2cccc(F)c2)[C@@H](CO)O1	.	-2	-5	19
47	Cc1noc(C)c1NC(=O)Nc1ccc2c(c1)C(=O)N([C@H](C)CO)C[C@H](C)[C@H](CN(C)S(=O)(=O)c1ccc(F)cc1)OCCCC[C@H](C)O2	3[16.7 µM]	1	12	.
48	CN(C)C(=O)C[C@@H]1C[C@H]2c3cc(NC(=O)CC4CC4)ccc3O[C@H]2[C@H](CO)O1	6[16.7 µM]	-2	.	0
49	C[C@H]1CN([C@@H](C)CO)C(=O)Cc2cc(NS(=O)(=O)c3ccccc3)ccc2O[C@@H]1CN(C)Cc1ccc(Cl)c(Cl)c1	17[16.7 µM]	58	38	103*
50	C[C@@H]1CN([C@@H](C)CO)C(=O)Cc2cc(NS(=O)(=O)c3ccccc3)ccc2O[C@@H]1CN(C)Cc1ccc(Cl)c(Cl)c1	3[16.7 µM]	85*	17	-3

Just miR-122 sensor, for some of the entries so far:
# | Molecule | miR-122 sensor
36 | O=C(C[C@@H]1C[C@H]2c3cc(NC(=O)C4CCC4)ccc3O[C@H]2[C@H](CO)O1)NC1CCCCC1 | 5[16.7 µM]
37 | CCCNC(=O)N[C@@H]1CC[C@H](CC(=O)NC2CCC2)O[C@@H]1CO | -7[16.7 µM]
